Assay results as given in EP1935986B1, “Luminogenic and fluorogenic compounds and methods to detect molecules or conditions” (priority 2005, dated 2006).

By UniProt entry, the sequences of proteins in these tests, tags left out. Residues count along the entry.
UniProt P05177, 2-516 limits assumed: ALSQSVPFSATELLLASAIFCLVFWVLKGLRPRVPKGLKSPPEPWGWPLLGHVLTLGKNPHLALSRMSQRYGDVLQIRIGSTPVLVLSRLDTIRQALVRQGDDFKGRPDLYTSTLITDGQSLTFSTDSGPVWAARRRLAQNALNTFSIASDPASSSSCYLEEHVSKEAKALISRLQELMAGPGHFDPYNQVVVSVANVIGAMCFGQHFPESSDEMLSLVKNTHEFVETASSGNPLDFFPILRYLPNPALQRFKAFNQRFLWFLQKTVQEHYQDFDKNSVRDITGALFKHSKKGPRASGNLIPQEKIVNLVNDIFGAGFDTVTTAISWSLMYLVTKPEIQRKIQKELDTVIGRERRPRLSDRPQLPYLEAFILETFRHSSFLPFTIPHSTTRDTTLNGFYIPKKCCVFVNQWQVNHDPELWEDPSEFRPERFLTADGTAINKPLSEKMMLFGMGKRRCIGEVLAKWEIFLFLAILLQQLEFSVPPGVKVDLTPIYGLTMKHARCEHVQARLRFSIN

Legend:
[1] = test system: panel of recombinant human P450s; test: Two-step luminescent P450 screen of luciferin derivatives, whole panel incl. HLM; assay type: biochemical; settings: 50 µM substrate; result in words
Description: A number of luciferin derivatives useful to detect P450 enzymes in a two step format were prepared: A, B and C ring modifications on (4S)-4,5-dihydro-2-(6-hydroxybenzothiazolyl)-4-thiazolecarboxylic acid (D-luciferin), and A ring modifications on (4S)-4,5-dihydro-2-(6-aminobenzothiazolyl)-4-thiazolecarboxylic acid (aminoluciferin). […] In addition, it was also of interest to identify substrates with improved selectivity for single P450 enzymes. As described below, in addition to new P450 substrates, luciferin esters were identified that are luminogenic substrates for carboxylesterases. Luciferin derivatives were tested as substrates for each of a panel of cytochrome P450 enzymes. Derivatives useful as P450 substrates may be employed in assays to detect inhibitors for particular P450 enzymes (see Figures 17-18).
P450s are Supersomes™ purchased from Discovery Labware (BD/Gentest). […] HLM is human liver microsomes.
1X substrate concentration: 50 µM.

CYP1A2 = CYP1A2 (Homo sapiens, UniProt P05177); test: Two-step luminescent P450 screen of luciferin derivatives; settings: 50 µM substrate, 1 pmole P450; result in words

Substance | luminescent signals with the panel of P450 enzymes [1] | background luminescence (minus P450 control samples) (luciferase) | P450 activity / selectivity with the derivative as substrate (CYP1A2)
Luciferin 6-isobutylcarbonate | non-selective | large background signal | –
luciferin-6-methylether-methoxylamide | – | – | good selectivity
